The values below are quoted from earlier work in patent publication US6664393B2 (priority 1999, dated 2003).

Amino acid sequences for entries named in this document (tags omitted). A change or cut given only in a name is not applied to a line headed by its entry.
UniProt P00742: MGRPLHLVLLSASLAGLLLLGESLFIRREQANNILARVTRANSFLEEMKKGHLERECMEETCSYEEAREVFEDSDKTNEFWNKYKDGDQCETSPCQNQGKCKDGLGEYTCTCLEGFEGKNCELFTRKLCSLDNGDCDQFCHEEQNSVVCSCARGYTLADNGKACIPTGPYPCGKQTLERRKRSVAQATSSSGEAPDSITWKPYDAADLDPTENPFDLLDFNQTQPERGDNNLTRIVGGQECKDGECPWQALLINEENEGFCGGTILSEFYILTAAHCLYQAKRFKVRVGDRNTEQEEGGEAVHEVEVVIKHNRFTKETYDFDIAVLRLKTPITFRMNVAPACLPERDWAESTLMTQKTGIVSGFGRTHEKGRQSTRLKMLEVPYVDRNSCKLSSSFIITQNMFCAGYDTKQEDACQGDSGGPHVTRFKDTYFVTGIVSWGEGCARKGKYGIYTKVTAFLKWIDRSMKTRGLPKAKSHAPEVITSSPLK

pKi: −log10 of the molar value.

The target of the series is factor Xa (Homo sapiens, UniProt P00742). Particulars: read-out: Ki for factor Xa; background, previously reported inhibitors; cited from earlier work.

With antistasin, the pKi is 10.30.

Turning to tick anticoagulant peptide, the pKi is 9.30.
